Earlier results, collected in paper PMC6966871.

Test system: NSCLC harboring c-MET exon14 skipping mutations
Design: method as in doi:10.1200/JCO.2018.36.15_suppl.9016
Conditions: NSCLC with c-MET exon14 skipping mutations (9/15); cited from earlier work

## CN1CCC(COc2cnc(-c3cccc(Cn4nc(-c5cccc(C#N)c5)ccc4=O)c3)nc2)CC1 [tepotinib]
  ORR: 60%
